Measured affinities in a library of Ab-14 light chain variants

From the AlphaSeq antibody data of Engelhart et al. 2022 (doi:10.1038/s41597-022-01779-4), copy in the FLAb collection.

Binding partner: SARS-CoV-2 spike HR2 peptide, sequence PDVDLGDISGINAS.

Ab-14 is the parent antibody, in scFv form: VH, then three GGGGS repeats, then VL. The heavy chain is unchanged in all variants.
VH: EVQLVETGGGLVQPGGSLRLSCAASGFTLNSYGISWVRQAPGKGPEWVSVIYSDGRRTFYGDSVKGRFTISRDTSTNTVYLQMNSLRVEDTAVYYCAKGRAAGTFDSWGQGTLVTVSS
VL: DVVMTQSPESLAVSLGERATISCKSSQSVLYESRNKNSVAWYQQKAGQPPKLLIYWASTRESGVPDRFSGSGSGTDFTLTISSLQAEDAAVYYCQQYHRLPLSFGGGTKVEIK

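Phage display of a naive human antibody library on the peptide gave the parent. Library AAYL50 holds single substitutions and randomly drawn double and triple substitutions in the CDRs. AlphaSeq pools MATa yeast showing the antibodies with MATalpha yeast showing the peptide. The frequency of each diploid, read from paired DNA barcodes, reflects how well the two displayed proteins bind. Read counts were normalised to the haploid input and turned into Kd by a linear fit to BCL2-family pairs of known affinity, for each replicate. There are three technical replicates.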

Changes read parent residue, position, new residue, counted from the first residue of the VL shown. Scale: log10 of Kd in nM, estimated from mating counts; low values are strong binders. Where no diploid with the target was found in that replicate, the entry reads "n.d.": below detection, most likely a poor binder, though not proof of it. Background: pairings of library AAYL50 with three empty control strains gave a value in 18% of cases (median 4.19, 5th percentile 2.99). Values in that range, when seen in few replicates, are hard to tell from nonspecific mating. For each scFv, signals with the empty controls are counted beside the result, with their mean in brackets.

{"changes": "A57S+S58F+Q95V", "log10 Kd (nM) by replicate": "2.42 / 1.90 / 3.41", "control signals": "2/9 (3.77)"}
{"changes": "L30Y+Y97W", "log10 Kd (nM) by replicate": "n.d. / n.d. / n.d.", "control signals": "0/9"}
{"changes": "S25W+E32A+L102A", "log10 Kd (nM) by replicate": "n.d. / 5.10 / n.d.", "control signals": "6/9 (4.43)"}
{"changes": "V29N+N35K+S38I", "log10 Kd (nM) by replicate": "n.d. / 4.08 / n.d.", "control signals": "0/9"}
{"changes": "V39E+L100P", "log10 Kd (nM) by replicate": "n.d. / n.d. / n.d.", "control signals": "1/9 (3.94)"}
{"changes": "E32D+V39T+R60Y", "log10 Kd (nM) by replicate": "4.12 / n.d. / 4.49", "control signals": "2/9 (4.59)"}
{"changes": "V29T+R99Q", "log10 Kd (nM) by replicate": "0.80 / 1.11 / 0.99", "control signals": "6/9 (4.69)"}
{"changes": "S28V+K36C+R60C", "log10 Kd (nM) by replicate": "4.51 / n.d. / 5.05", "control signals": "1/9 (4.35)"}
{"changes": "N35G+T59Y+Q96T", "log10 Kd (nM) by replicate": "1.57 / 2.08 / 1.84", "control signals": "4/9 (3.63)"}
{"changes": "S38V+A40N+T59S", "log10 Kd (nM) by replicate": "n.d. / 4.16 / n.d.", "control signals": "0/9"}
{"changes": "A40S+R99F", "log10 Kd (nM) by replicate": "n.d. / n.d. / n.d.", "control signals": "3/9 (4.03)"}
{"changes": "V29D+S58V+S103A", "log10 Kd (nM) by replicate": "1.18 / 1.41 / 1.17", "control signals": "2/9 (4.99)"}
{"changes": "S26D+Y97F+L102H", "log10 Kd (nM) by replicate": "3.15 / 3.31 / 2.95", "control signals": "0/9"}
{"changes": "S33K+N35H+W56S", "log10 Kd (nM) by replicate": "1.84 / 1.78 / 2.10", "control signals": "2/9 (3.71)"}
{"changes": "K24S+S58Q+Q95K", "log10 Kd (nM) by replicate": "n.d. / n.d. / n.d.", "control signals": "0/9"}
{"changes": "S33Q+R34E+Y97Q", "log10 Kd (nM) by replicate": "-0.07 / 0.30 / 0.00", "control signals": "0/9"}
{"changes": "K24I+N35P+R99E", "log10 Kd (nM) by replicate": "2.83 / 2.54 / 1.83", "control signals": "0/9"}
{"changes": "Q27A+S33C+E61N", "log10 Kd (nM) by replicate": "3.86 / 4.89 / n.d.", "control signals": "4/9 (3.30)"}
{"changes": "S38E+A40F+Q96C", "log10 Kd (nM) by replicate": "n.d. / n.d. / n.d.", "control signals": "2/9 (4.35)"}
{"changes": "K24L+N37C+E61L", "log10 Kd (nM) by replicate": "4.63 / 2.94 / 3.21", "control signals": "0/9"}
{"changes": "L30S+K36N+V39R", "log10 Kd (nM) by replicate": "n.d. / n.d. / n.d.", "control signals": "4/9 (3.87)"}
{"changes": "Q95M+P101Q", "log10 Kd (nM) by replicate": "1.08 / 1.10 / 1.52", "control signals": "1/9 (5.01)"}
{"changes": "K24R+E61L+S62Y", "log10 Kd (nM) by replicate": "1.47 / 1.44 / 1.49", "control signals": "3/9 (4.25)"}
{"changes": "S38A+S58R+P101E", "log10 Kd (nM) by replicate": "1.60 / 1.78 / 1.58", "control signals": "2/9 (3.58)"}
{"changes": "V29A+S58C+L102W", "log10 Kd (nM) by replicate": "n.d. / 1.30 / n.d.", "control signals": "1/9 (1.92)"}
{"changes": "W56F+S62R+Q96H", "log10 Kd (nM) by replicate": "4.23 / 3.18 / 2.39", "control signals": "1/9 (3.26)"}
{"changes": "S25P+R34D+A57P", "log10 Kd (nM) by replicate": "n.d. / n.d. / 4.59", "control signals": "2/9 (3.60)"}
{"changes": "V29W+Y31L+S58D", "log10 Kd (nM) by replicate": "0.65 / 0.81 / 0.86", "control signals": "1/9 (2.95)"}
{"changes": "V29W+R60Y+Q96T", "log10 Kd (nM) by replicate": "n.d. / n.d. / n.d.", "control signals": "0/9"}
{"changes": "L30E+A57F+H98R", "log10 Kd (nM) by replicate": "n.d. / n.d. / n.d.", "control signals": "2/9 (2.87)"}
{"changes": "S26V+V29S+H98E", "log10 Kd (nM) by replicate": "1.25 / 1.64 / 1.82", "control signals": "0/9"}

Picked from the list: the 2 lowest averages where every replicate gave a value.

changes	log10 Kd (nM) by replicate	control signals
S33Q+R34E+Y97Q	-0.07 / 0.30 / 0.00	0/9
V29W+Y31L+S58D	0.65 / 0.81 / 0.86	1/9 (2.95)